This is a selection: effects in other tests are not listed, and their absence says nothing.

Experimental findings from patent publication US20090123377A1, “Method for Testing Substances or Mixtures of Substances,Use of Said Method and Corresponding Test Kits” (BASF AKTIENGESELLSCHAFT, priority 2005, published 2009) are described below.

The subject of the series is L-FABP. In words: Immunological determination of L-FABP by Western blotting in liver extracts of exposed rats. The following applies: rat liver extract, high dosage, 10 days, versus control after 10 days. (Immunoblotting shows a protein as a band on a membrane.)

Regarding `Cc1ccc([N+](=O)[O-])cc1[N+](=O)[O-]`, the “L-FABP level by Western blotting” value is “no change in the L-FABP level”.
